According to PubChem BioAssay AID1347418 (Sanford-Burnham Center for Chemical Genomics, 2020):
This is a selection; strong and weak results do not stand in their true shares. Calls of active or inactive are those of the source.

By UniProt entry, the sequences of proteins in these tests, tags left out. Where a name states a change or a piece, a line headed by the entry shows the natural chain unless it says otherwise.
UniProt O00391: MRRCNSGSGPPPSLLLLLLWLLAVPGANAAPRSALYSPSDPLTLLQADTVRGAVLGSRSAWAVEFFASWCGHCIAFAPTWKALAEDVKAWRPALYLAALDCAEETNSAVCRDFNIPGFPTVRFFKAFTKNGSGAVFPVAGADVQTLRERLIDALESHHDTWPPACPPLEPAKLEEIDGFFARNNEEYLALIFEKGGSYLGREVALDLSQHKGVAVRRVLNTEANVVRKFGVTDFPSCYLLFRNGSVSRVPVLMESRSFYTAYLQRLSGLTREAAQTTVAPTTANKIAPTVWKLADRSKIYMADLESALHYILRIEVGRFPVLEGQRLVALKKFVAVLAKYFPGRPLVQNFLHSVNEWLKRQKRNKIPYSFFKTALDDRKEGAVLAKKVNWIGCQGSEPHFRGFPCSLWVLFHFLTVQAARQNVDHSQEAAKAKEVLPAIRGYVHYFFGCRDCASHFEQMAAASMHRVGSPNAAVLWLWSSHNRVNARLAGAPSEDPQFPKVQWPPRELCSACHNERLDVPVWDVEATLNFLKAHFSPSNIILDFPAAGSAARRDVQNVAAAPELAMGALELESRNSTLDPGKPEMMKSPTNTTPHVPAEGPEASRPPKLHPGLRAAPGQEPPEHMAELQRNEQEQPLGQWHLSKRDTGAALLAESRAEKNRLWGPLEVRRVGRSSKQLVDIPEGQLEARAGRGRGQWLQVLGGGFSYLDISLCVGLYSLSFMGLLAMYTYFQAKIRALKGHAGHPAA

target: Sulfhydryl oxidase 1 (Homo sapiens) (UniProt O00391); assay: inhibition of human sulfhydryl oxidase QSOX1 – biochemical, ROS-Glo H2O2 luminescence, HTS, primary screen (AID 1347418); conditions: recombinant QSOX1, ROS-Glo H2O2 luminescence; at 12.5 µM; hits give high values; active = any value above zero

| SMILES | inhibition |
| --- | --- |
| CN(C(=O)Cc1ccc(Cl)c(Cl)c1)[C@H]1CCCC[C@@H]1N1CCCC1 | active: 1.1% |
| CN(C(=O)Cc1ccc(Cl)c(Cl)c1)[C@@H]1CCCC[C@@H]1N1CCCC1 | inactive: -3.2% |
| CN(C(=O)Cc1ccccc1)[C@@H]1CC[C@]2(CCCO2)C[C@H]1N1CCCC1 | inactive: -0.6% |
| CN(C(=O)Cc1ccc(Cl)c(Cl)c1)[C@@H]1CC[C@]2(CCCO2)C[C@H]1N1CCCC1 | active: 1% |
| CN(CCCl)Cc1cc(Cl)c(NC2=NCCN2)c(Cl)c1 | inactive: -2.2% |
